Test results published in ChEMBL document CHEMBL2150880, “Discovery and characterization of small molecule inhibitors of the BET family bromodomains” (J Med Chem, 2011).

Chains of the proteins cited; added tags and fusions are not shown.
UniProt Q15059, whole entry: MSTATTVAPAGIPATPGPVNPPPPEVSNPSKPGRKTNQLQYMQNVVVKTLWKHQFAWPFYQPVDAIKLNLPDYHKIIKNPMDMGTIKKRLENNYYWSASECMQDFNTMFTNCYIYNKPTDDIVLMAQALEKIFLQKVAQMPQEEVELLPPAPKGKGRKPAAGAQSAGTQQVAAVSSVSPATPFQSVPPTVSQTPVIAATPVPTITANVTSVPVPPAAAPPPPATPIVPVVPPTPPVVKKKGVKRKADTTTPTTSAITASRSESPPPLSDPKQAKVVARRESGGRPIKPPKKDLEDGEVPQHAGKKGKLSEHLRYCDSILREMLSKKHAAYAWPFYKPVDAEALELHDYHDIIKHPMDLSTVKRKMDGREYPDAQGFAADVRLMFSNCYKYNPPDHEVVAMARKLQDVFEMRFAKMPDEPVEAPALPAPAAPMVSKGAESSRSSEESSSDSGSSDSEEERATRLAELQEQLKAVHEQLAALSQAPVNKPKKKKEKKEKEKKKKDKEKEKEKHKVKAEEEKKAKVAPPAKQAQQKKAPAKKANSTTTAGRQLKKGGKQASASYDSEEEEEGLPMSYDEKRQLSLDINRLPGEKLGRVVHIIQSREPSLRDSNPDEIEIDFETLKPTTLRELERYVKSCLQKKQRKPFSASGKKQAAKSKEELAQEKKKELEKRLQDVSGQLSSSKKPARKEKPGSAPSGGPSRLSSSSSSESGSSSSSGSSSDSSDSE

Columns and labels:
[1] = target: T1, Bromodomain-containing protein 3 (Homo sapiens, UniProt Q15059); test: Displacement of tetra-acetylated H4 peptide from human Brd3 bromodomain BD12 after 1 hr by FRET analysis
[2] = target: T1, Bromodomain-containing protein 3; test: Binding affinity to N-terminal portion of human Brd3 containing bromodomain BD12 expressed in Escherichia coli by isothermal titration calorimetric analysis

In the case of `Cc1nnc2n1-c1ccccc1C(c1ccccc1)=NC2NC(=O)OCc1ccccc1` (configuration not stated), the IC50 [1] is reported as 28.4 nM and the Kd [2] is reported as 19 nM.
